The labels stand for the following.
B1: tyrosinase 156-175 (peptide)
peptide: YGQMKNGSTPMFNDINIYDL
notes: tyrosinase melanoma-associated antigen, residues 156-175; also called tyr.156-175; tyr156; source: synthetic peptide (FMOC chemistry, UPCI Peptide Synthesis Facility), >90% pure
B2: gp100/pmel17 377-398 (peptide)
peptide: EKVPVSEVMGTTLAEMSTPEAT
notes: gp100/pmel17 melanoma-associated antigen, residues 377-398; also called gp100377-398; g377; source: synthetic peptide (FMOC chemistry, UPCI Peptide Synthesis Facility), >90% pure
B3: gp100 615-633 / pmel17 622-640 (peptide)
peptide: IYRRRLMKQDFSVPQLPHS
notes: gp100/pmel17 melanoma-associated antigen, residues 615-633 on gp100 numbering, 622-640 on pmel17 numbering; also called gp100615-633 (identical to pmel17622-640 ); g615; source: synthetic peptide (FMOC chemistry, UPCI Peptide Synthesis Facility), >90% pure
B4: tyrosinase 365-381N (peptide)
peptide: ALHIYMNGTMSQVQGSA
notes: also called tyr.365-381N; tyr365N; source: synthetic peptide (FMOC chemistry, UPCI Peptide Synthesis Facility), >90% pure
B5: gp100/pmel17 400-421 (peptide)
peptide: MTPAEVSIVVLSGTTAAQVTTT
notes: gp100/pmel17 melanoma-associated antigen, residues 400-421; also called gp100400-421; g400; source: synthetic peptide (FMOC chemistry, UPCI Peptide Synthesis Facility), >90% pure

The text below walks through data of paper PMC2363969 (British Journal of Cancer, 2001).

The target of one test is HLA-DRB1*0404 (human). The test can be described thus: radioligand binding. Conditions: both partners purified.
For orientation: IC50 means the concentration needed to halve the response being measured. In turn, B1 showed an IC50 of 953 nM.
Still for that read-out and setting: the result for B2 reads 92 nM; that for B3, 9 nM; that for B4, 174 nM.

The target in another test is HLA-DRB1*0401 (human). Description: radioligand binding. Conditions: both partners purified.
Molecule B5 had an IC50 of 148 nM.
Still for that read-out and setting: the result for B4 reads 1740 nM.
